The test deals with Male Long-Evans hooded rats. The experiment in a line: Synergy with acetylcholinesterase inhibitor Aricept in Novel Object Recognition Model. Format: in vivo, rat. The settings on record: Aricept 0.5 mg/kg i.p. alone (sub-threshold), P<0.05.

For `COc1cc2c(cc1OC)C(=O)C(CC1CCN(Cc3ccccc3)CC1)C2` (stereo not shown) [Aricept®, donepezil], the “contact times in familiar and novel environments, administered separately” value is reported as “not statistically different”.

The values above are taken from US7671056B2, “Piperazine-piperidine antagonists and agonists of the 5-HT1A receptor” (Wyeth LLC, priority 2005, dated 2010).
